From patent US8703199B2, “Pharmaceutical compositions of adsorbates of amorphous drug” (Bend Research, Inc., priority 2001, dated 2014)

Assay: accelerated storage test of physical stability (PXRD)
Assay type: physicochemical
Details: stored for 1 week at 40° C./75% RH

quinoxaline-2-carboxylic acid [4(R)-carbamoyl-1(S)-3-fluorobenzyl)-2(S), 7-dihydroxy-7-methyl-octyl]amide [Control 1B]
crystallization of drug on storage: significant crystallization
